According to patent publication US20250320140A1, “USE OF MEDIUM CHAIN PERACIDS FOR BIOFILM INHIBITION IN INDUSTRIAL RECIRCULATING WATER SYSTEMS” (ECOLAB USA INC., priority 2017, published 2025):

Experiment: Solubility of sulfonated peracids at pH 4
Assay type: physicochemical
Settings: pH of 4

persulfonated oleic acid
solubility: greater than 50%
